Results reported in ChEMBL document CHEMBL3526103, “Prediction of in vivo hepatic clearance and half-life of drug candidates in human using chimeric mice with humanized liver” (Drug Metab Dispos, 2012).

Test system: Nucleic Acid
Assay: Ratio of drug level in blood to plasma in iv dosed human
Assay type: ADME, organism-based
Settings: in vivo

`COc1ccc2cc([C@H](C)C(=O)O)ccc2c1` [NAPROXEN] was tested, and the Rblood_plasma was 0.55.
